Drawing on PubChem BioAssay AID1948 (National Center for Advancing Translational Sciences (NCATS), 2009), this text covers activity change, positive = activation for 22 compounds.

SMILES strings stand for the structures. The entries are a selection whose mix differs from that of the whole data set. Active and inactive are the calls of the source. Calls come from the whole dose curve; as a rule, active = well fitted activation curve with a large enough effect; inconclusive = small, poorly fitted or top-dose-only effect; inactive = no such curve, though single readings can be large or run the other way.

The test is described as follows: qHTS Assay for Compounds that Induce Erasure of Genomic Imprints.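 Note: 0% = negative control wells on the plate.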 The settings on record: mouse ES Peg3-LacZ reporter, beta-gal luminescence, 40 h; at 10.9 µM unless noted. In general terms: Quantitative high-throughput screening tests each substance at several concentrations.
Consider `CCC(CO)(C(=O)OC1CN2CCC1CC2)c1ccccc1` (configuration not stated), for which the activity change, positive = activation is inactive: -5.34% [at 60.7 µM].

As for `COc1cc(C(=O)NCC2(N3CCOCC3)CCCCC2)cc(OC)c1OC`, the activity change, positive = activation was inactive: -4.24%.

For `CCOc1ncccc1C(=O)NCC1(N2CCOCC2)CCCCC1`, the activity change, positive = activation is inactive: -14.6% [at 60.7 µM]. With `O=C(O)C1(Nc2ccccc2)CCN(Cc2ccccc2)CC1`, the activity change, positive = activation was inactive: 5.77%.

In the case of `CC(C)(C)c1ccc(C(=O)NCC2(N3CCOCC3)CCCCC2)cc1`, the activity change, positive = activation is inactive: -19.6%.

Turning to `Cc1ccccc1C(=O)NCC1(N(C)C)CCCCC1`, the activity change, positive = activation is inactive: -6.39%. Consider `CN(C)C1(CNC(=O)c2ccc(C(C)(C)C)cc2)CCCCC1`, for which the activity change, positive = activation is inactive: -13.1%. As for `O=C(NCC1(N2CCOCC2)CCCCC1)c1ccccc1`, the activity change, positive = activation is inactive: 9.25%. For the compound `ClCCOP(OCCCl)OCCCl`, the activity change, positive = activation is inactive: -0.416% [at 60.7 µM]. As to `O=C(NCC1(N2CCOCC2)CCCCC1)c1ccc([N+](=O)[O-])cc1`, the activity change, positive = activation is inactive: 13.9%. Consider `O=C(NCC1(N2CCOCC2)CCCCC1)c1ccccc1[N+](=O)[O-]`, for which the activity change, positive = activation is inactive: -6.28%. `N/C(=N\O)c1c(N)no[n+]1[O-]`: the activity change, positive = activation is inactive: -3.72% [at 60.7 µM]. As for `NC1CCCCC1.NP(=O)(O)N(CCCl)CCCl`, the activity change, positive = activation was inactive: -0.403%. As to `CCCCOc1ccccc1C(=O)NCC1(N2CCOCC2)CCCCC1`, the activity change, positive = activation is inactive: -13%. As for `O=C(NCC1(N2CCOCC2)CCCCC1)c1ccccc1Br`, the activity change, positive = activation was inactive: -13.8%. The figure for `CCOP(=O)(Cl)Cl` is inactive: -3.61% [at 60.7 µM]. `CCCOc1cccc(C(=O)NCC2(N3CCOCC3)CCCCC2)c1`: the activity change, positive = activation was inactive: -17.1%.

For the compound `CCOc1ccc(C(=O)NCC2(N3CCOCC3)CCCCC2)cc1`, the activity change, positive = activation was inactive: -17.2%. The figure for `N#CC1(Nc2ccccc2)CCN(CCc2ccccc2)CC1` is inactive: -7.42% [at 60.7 µM].

`O=C(NCC1(N2CCOCC2)CCCCC1)c1ccc(Cl)cc1`: the activity change, positive = activation is inactive: -2.64%.

For the compound `COc1ccccc1C(=O)NCC1(N2CCOCC2)CCCCC1`, the activity change, positive = activation is inactive: -7.66%. Regarding `O=C(OC1CN2CCC1CC2)C1c2ccccc2Oc2ccccc21` (configuration not stated), the activity change, positive = activation is inactive: 0.213% [at 60.7 µM].
